Experimental data reported in BindingDB's records for doi:10.1021/jm00045a022 (National Institute of Diabetes and Digestive and Kidney …, 1994).

Assay: Inhibition of [3H](+)-pentazocine binding to sigma receptor of guinea pig brain

Compound | pKi
CN1CC[C@@]2(c3cccc(O)c3)CC(=O)C(=Cc3ccc(Cl)c(Cl)c3)[C@@H]1C2 | 7.49
CN1CC[C@@]2(c3cccc(O)c3)CC(=O)C(=Cc3ccc(Cl)c(Cl)c3)[C@H]1C2 | 5.49

pKi: −log10 of the molar value.
